From patent publication US8546322B2, “Inhibitors of intracellular urokinase plasminogen activator and methods of use thereof” (The Regents of the University of California, priority 2007, dated 2013)
Read-outs that look alike come from different tables or passages of the source.

Protein sequences, listed by entry. Tags and fused reporters are not part of them. Residues count along the entry.
UniProt P00750, 36-562 limits assumed: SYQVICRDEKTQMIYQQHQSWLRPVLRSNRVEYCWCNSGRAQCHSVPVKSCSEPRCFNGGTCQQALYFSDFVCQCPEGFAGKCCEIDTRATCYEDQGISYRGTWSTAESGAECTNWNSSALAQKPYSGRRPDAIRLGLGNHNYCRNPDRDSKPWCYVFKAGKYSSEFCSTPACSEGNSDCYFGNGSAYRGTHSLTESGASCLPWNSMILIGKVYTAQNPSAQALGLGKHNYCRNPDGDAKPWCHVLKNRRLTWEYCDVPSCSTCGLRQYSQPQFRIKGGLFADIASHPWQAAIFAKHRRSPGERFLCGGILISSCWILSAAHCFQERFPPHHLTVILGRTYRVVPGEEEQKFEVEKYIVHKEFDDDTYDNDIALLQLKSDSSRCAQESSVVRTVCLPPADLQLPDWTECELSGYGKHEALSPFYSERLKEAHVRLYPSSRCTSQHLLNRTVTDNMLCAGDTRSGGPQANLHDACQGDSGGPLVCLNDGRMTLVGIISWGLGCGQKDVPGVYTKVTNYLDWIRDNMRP
UniProt P19634, whole entry: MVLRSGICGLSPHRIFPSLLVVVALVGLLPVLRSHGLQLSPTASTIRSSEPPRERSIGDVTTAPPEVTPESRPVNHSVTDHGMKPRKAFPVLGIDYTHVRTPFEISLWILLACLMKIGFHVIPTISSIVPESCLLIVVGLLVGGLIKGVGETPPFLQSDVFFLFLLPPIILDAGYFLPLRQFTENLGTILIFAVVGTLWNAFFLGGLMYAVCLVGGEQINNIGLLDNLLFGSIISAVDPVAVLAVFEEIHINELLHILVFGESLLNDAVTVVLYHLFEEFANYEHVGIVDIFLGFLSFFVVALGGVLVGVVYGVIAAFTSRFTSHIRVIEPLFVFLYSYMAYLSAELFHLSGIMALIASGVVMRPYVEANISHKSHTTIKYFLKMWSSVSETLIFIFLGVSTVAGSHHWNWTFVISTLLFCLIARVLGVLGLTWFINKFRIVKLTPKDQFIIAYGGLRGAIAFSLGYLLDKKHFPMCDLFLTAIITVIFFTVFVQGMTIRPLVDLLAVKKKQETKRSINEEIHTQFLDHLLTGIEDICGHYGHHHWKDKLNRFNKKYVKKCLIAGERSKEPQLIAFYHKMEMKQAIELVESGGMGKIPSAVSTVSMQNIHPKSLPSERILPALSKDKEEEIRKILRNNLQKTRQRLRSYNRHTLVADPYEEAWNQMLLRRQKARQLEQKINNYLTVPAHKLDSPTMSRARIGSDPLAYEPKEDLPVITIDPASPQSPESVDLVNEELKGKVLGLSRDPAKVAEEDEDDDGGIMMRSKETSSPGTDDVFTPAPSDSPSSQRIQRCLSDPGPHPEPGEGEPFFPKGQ

Key:
U87 glioma cells [1] = test: U87 glioma cell adherence to extracellular matrix (ECM)
U87 glioma cells [2] = test: U87 proliferation and survival, tetrazolium (WST) live cell assay and manual cell counts; settings: for proliferation after drug removal at 24 h (in words): drug removed at 24 h, read at 48 h
U87 glioma cells [3] = test: U87 cell death, manual cell counts with trypan blue exclusion; assay type: cell-based, human; settings: for glioma cell death / viability (in words): 48 h
uPA = uPA (Homo sapiens, UniProt P00749); test: uPA enzymatic inhibition with peptide-specific fluorogenic substrates; assay type: biochemical
tPA = tPA (Homo sapiens, UniProt P00750); test: tPA enzymatic inhibition; settings: listed as AmC(5)-GlyOBn
[4] = tested on: gelatinases expressed by U87 glioma cells (MMP-2, MMP-9); test: Gelatinase (MMP-2, MMP-9) inhibition; settings: listed as AmC(5)-GlyOBn
NHE1 = NHE1 (Homo sapiens, UniProt P19634); test: Sodium-proton exchange (NHE1) inhibition in glioma cells (BCECF fluorometry)
U87 glioma cells [5] = test: Cell permeation by fluorescent microscopy of U87 glioma cells; assay type: cell-based; settings: 50 μM, 90-180 min incubation
glioma cells [6] = test: Glioma cell volume in vitro and in intracerebral xenografts (7 tesla NMR)
glioma cells [7] = test: Glioma cell invasion
[8] = tested on: normal primary astrocytes; test: Effect on normal primary astrocytes; assay type: cell-based
[9] = tested on: intracerebral human U87 glioma xenografts; test: Intracerebral U87 glioma xenograft growth (NMR, stereology); assay type: in vivo, athymic rats
[10] = Neuropathology and behaviour with intracranial administration; assay type: in vivo; settings: for neuropathological changes in normal brain cell types (in words): intracranial administration, 10-14 days
Source text: […]. For amiloride, parasaggital sections were stained with hematoxylin and eosin in addition to using specialized stains for neuronal damage (FluoroJade) and for myelinated fiber tracts (luxol fast blue). […]. There were no premature deaths.
. Each experimental and control group described below consist of a minimum of 10 animals per group. Experimental Design. The in vivo toxicity studies initially employ single, daily intracranial infusions of the candidate compound into a group of Sprague-Dawley rats for 13 days. Treated S-D animals are compared to a group of 10 control animals receiving intracranial drug vehicle injections. The infused drug concentration is based upon the cell line studies and adjusted for the low protein content of the cerebrospinal fluid which is 0.2% that of serum. Animals are behaviorally assessed for toxicity. […]. General Health and Behavioral Studies. Body weights and behavioral parameters are assessed daily in drug-treated and vehicle-treated rats during 12 day treatment paradigms. Currently, standardized behavior tests are used, which include quantitative measures of vestibulomotor function, fine motor coordination, ambulation, and spatial memory. A daily neurotoxicity behavioral sign checklist (72) to detect neurological signs of toxicity and seizures is also performed. Acquisition of spatial memory is particularly sensitive for detecting subtle drug toxicities (Preliminary Results). Body weight is used as a measure of general health. Neuropathological Studies: Cytological studies are performed in the same drug-treated and vehicle-treated rats at the conclusion of behavioral testing. Fixation and sectioning techniques are described in the Experimental Methods section. Hematoxylin and eosin are used routinely to survey for neuropathological changes. Luxol fast blue stains myelin tracts to evaluate potential white matter changes. […] Assessment of brainstem white matter tracts with luxol fast blue staining includes the spinocerebellar, vestibulospinal, corticospinal, spinothalamic. Specialized stains for reactive astrocytes, neuronal chromatolysis, etc. are added if brain lesions are detected. […]. Potential Problems and Alternatives. […]. However, there were problems with spatial memory that persisted throughout the nine day infusion period. These behavioral studies indicate the need to behaviorally assess treatment of the glioma tumor models.

[11] = 300 pmol/d intracranial once daily, day 1 to 10 postimplantation, 14 xenografts

N=C(N)NC(=O)c1nc(Cl)c(NCC(=O)OCc2ccccc2)nc1N
glioma cell adherence to ECM (in words) (U87 glioma cells [1]): significant inhibition of adherence to ECM | % of control attachment at 4 h (U87 glioma cells [1]; 250 microM, U87 cells on ECM, 4 h): 15 ± 5 % | cell numbers as % of control at 48 h (WST assay) (U87 glioma cells [2]; 250 microM, 48 h treatment): 6% | reduction in viable cell numbers (WST live cell assay) (U87 glioma cells [2]; after 48 h): 84% | proliferation after drug removal at 24 h (in words) (U87 glioma cells [2]; listed as AmC(5)-Gly-OBn): permitted glioma cells to resume proliferation | proliferation after drug removal at 24 h (in words) (U87 glioma cells [2]; listed as AmC(5)-GlyOBn): inhibition of proliferation was reversed by 48 h | glioma cell proliferation (in words) (U87 glioma cells [2]; listed as AmC(5)-Gly-OBn): inhibited proliferation | glioma cell proliferation (in words) (U87 glioma cells [2]; listed as AmC(5)-GlyOBn): inhibited | % cell death, trypan blue (U87 glioma cells [3]; 250 microM, 48 h treatment): (84) % | glioma cell death / viability (in words) (U87 glioma cells [3]; listed as AmC(5)-Gly-OBn): caused subsequent glioma cell death by 48 h | glioma cell death / viability (in words) (U87 glioma cells [3]; listed as AmC(5)-GlyOBn): caused U87 glioma cell demise at 48 h | inhibition of uPA (in words) (uPA): reversibly and comparably inhibit | IC50 (uPA; read-out: IC50, inhibition of intracellular glioma uPA, intracellular glioma uPA): 7.5 µM | inhibition of tPA (in words) (tPA): does not inhibit | inhibition of gelatinases MMP-2, MMP-9 (in words) [4]: does not inhibit | inhibition of NHE1 (in words) (NHE1): reversibly and comparably inhibit | inhibition of NHE1 (in words) (NHE1; listed as AmC(5)-Gly-OBn): same potencies of AmC(5)-Gly | cell permeation (in words) (U87 glioma cells [5]): permeates glioma cells | cell permeation (in words) (U87 glioma cells [5]; listed as AmC(5)-Gly-OBn): cell permeant | cell permeation (in words) (U87 glioma cells [5]; listed as AmC(5)-GlyOBn): rapidly permeates cells | glioma cell volume (in words) (glioma cells [6]): shrink glioma cell volumes | glioma cell invasion (in words) (glioma cells [7]): inhibits | effect on normal primary astrocytes (in words) [8]: no effect | tumors with marked retardation in the initial rates of tumor growth [9, 11]: 57% | xenografts that failed to become established [9, 11]: 43% | mean tumor volume at 10d postimplantation relative to vehicle-treated controls ([9]; 3 days pretreatment, then once daily intracranial for 10 days, 6 treated animals): < 30% | treated animals without demonstrable tumors (stereology) ([9]; 3d pre-treatment, then daily intrathecal 300 pmol/d for 10d): Three of the seven | xenograft tumor growth (in words) ([9]; intracranial administration): prevented or significantly impaired U87 tumor proliferation | behavioral side effects and seizures (in words) ([10]; efficacious intracranial administration): but not | neuropathological changes in normal brain cell types (in words) ([10]; listed as AmC(5)-Gly-OBn): no effect | neuropathological changes in normal brain cell types (in words) ([10]; listed as AmC(5)-GlyOBn): Neuropathological changes were not observed | neuropathological changes in normal brain cell types (in words) ([10]; listed as AmC(5)Gly-OBn): Neither compound produces neuropathological changes
